Laboratory results: ChEMBL document CHEMBL1121888, “(alpha S)-erythro-alpha-methylepinephrine: preparation and stereoselective binding to adrenergic receptors in rat forebrain” (J Med Chem, 1981)

Protein sequences, listed by entry. Tags and fused reporters are not part of them. Lines headed by an entry give the natural chain unless they say otherwise; changes in a name come on top.
UniProt P15823: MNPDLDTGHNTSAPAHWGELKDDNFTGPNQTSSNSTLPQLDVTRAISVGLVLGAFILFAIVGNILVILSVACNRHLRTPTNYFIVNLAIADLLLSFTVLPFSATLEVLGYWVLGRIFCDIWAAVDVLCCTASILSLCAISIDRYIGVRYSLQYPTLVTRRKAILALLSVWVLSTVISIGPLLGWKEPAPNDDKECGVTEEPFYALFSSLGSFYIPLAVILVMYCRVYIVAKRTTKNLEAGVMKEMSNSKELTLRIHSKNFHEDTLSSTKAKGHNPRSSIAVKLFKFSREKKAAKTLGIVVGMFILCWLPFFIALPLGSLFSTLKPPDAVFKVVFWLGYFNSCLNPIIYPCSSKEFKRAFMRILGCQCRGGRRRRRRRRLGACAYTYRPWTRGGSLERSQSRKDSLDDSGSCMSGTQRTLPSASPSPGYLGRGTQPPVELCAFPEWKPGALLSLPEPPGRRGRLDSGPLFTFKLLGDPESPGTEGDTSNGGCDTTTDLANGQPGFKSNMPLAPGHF
UniProt P23944: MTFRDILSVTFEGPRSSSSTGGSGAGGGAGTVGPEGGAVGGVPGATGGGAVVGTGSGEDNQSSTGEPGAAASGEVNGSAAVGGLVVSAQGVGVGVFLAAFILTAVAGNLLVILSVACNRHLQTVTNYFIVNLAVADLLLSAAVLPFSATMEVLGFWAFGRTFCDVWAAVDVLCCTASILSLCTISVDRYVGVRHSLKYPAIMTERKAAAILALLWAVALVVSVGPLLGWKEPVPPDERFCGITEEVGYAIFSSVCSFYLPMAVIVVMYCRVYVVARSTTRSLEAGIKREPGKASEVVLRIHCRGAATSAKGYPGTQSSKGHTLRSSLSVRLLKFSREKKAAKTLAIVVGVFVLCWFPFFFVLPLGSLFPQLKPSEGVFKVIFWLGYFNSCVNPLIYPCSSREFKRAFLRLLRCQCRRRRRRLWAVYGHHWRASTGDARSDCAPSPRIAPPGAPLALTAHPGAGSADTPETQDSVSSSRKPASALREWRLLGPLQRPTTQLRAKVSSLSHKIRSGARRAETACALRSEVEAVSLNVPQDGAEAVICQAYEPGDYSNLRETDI
UniProt P43140: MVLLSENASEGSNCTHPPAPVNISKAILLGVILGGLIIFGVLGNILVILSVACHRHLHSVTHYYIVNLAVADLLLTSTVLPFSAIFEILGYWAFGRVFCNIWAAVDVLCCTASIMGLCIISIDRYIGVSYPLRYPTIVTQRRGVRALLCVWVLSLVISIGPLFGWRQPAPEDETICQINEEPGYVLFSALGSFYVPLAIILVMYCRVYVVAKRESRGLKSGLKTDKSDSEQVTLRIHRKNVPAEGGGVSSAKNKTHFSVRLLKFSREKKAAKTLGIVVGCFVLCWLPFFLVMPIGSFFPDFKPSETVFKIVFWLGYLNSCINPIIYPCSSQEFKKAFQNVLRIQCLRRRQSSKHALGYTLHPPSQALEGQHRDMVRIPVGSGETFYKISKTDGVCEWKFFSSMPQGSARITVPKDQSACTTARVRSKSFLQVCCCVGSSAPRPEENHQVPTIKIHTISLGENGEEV

Molecular target: Adrenergic receptor alpha-1 (Rattus norvegicus, UniProt P15823+P23944+P43140)
Experiment: Compound was evaluated for inhibition of [3H]prazosin binding to Alpha-1 adrenergic receptor in rat forebrain homogenate.
Format: tissue-based, Brain

Ki: 0.2 µM
Structure (SMILES): CNC[C@H](O)c1ccc(O)c(O)c1 [EPINEPHRINE]
